# Measured affinities in a library of Ab-14 heavy chain variants

Target peptide (SARS-CoV-2 spike, HR2 region): PDVDLGDISGINAS

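Phage display of a naive human antibody library on the peptide gave the parent. Designed CDR sequences, proposed from the first random library and measured here. Several design methods are mixed in this list. The assay is AlphaSeq: two haploid yeast populations carry antibody and antigen on their surface. Pairs that bind mate more often; barcode pairs of the diploids are counted by sequencing. Each replicate has its own calibration line, from reference interactions of the BCL2 family. Mating was done six times.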

The variants keep the light chain, the linker and the frameworks of Ab-14 (scFv order VH, a (GGGGS)3 linker, VL).
VH: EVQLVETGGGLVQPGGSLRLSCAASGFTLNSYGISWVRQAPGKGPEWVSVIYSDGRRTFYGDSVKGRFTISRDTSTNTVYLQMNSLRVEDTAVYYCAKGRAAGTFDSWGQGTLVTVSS
VL: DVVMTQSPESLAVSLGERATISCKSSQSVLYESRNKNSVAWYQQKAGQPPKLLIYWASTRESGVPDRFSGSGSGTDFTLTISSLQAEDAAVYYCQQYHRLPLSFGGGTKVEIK

Variants are written as CDR1, CDR2 and CDR3 of the heavy chain (limits as in the source). Parent: GFTLNSYGIS, VIYSDGRRTFYGDSVK, GRAAGTFDS.
Variants here have at most six changes.
Each Kd is an estimate from the mating assay, the geometric mean of the replicates in which the pair was seen; lower is stronger.
An entry "nd" has no value in the source: the pair was not observed among the diploids in any replicate. This suggests poor binding but is not conclusive.
A sequence measured in both rounds can read differently, since the two assays cover different ranges.
The authors averaged sequences with at least three values out of six and counted those with two or fewer as poor binders.
Nonspecific signal, from three strains lacking the peptide, appeared in 1% of pairings of all heavy chain designs, centred on 120 nM (5% of these signals below 7.0 nM); values are not corrected for it. The control count says in how many pairings with the empty strains this scFv gave a signal.
The parent sequence was in this pool as ten entries: three were never detected, three once, and four in most replicates, with averages from 2.2 nM to 240 nM.

With GFELNSYGIS | VIYSDGQRTFYADSVK | GRTAGTFDS the result was 740 pM (6 of 6 replicates; controls 0 of 18). For KFTLNSYGIS | VIYSDGRRTFYGDSVK | GRGAGTFDS, the assay gave 200 nM (2 of 6 replicates; controls 0 of 18). For GFTLNMYGIS | VIYSDGRRTYYGDSVK | GRAAGTFDS, the assay gave 4.4 nM (6 of 6 replicates; controls 0 of 18). For GFTLNQYGIS | VIYSDGRRTFYSDSVK | GKAAGTFDS, the assay gave 1.9 nM (6 of 6 replicates; controls 0 of 18). For GFHLNSYGIS | VIYSDGRRTFYGDSVK | GKQAKTFDS, the assay gave nd (0 of 6 replicates; controls 1 of 18). The variant GFTLNEYGIS | VIYSDGRRTFYKDSVK | GRVAGTFDS showed 65 pM (3 of 6 replicates; controls 0 of 18).

For GFTLNSYGIS | VIYSDGRRTFYHDSVK | GQVAGTFDS, the assay gave 8.0 nM (6 of 6 replicates; controls 0 of 18). The variant GFTLNDYGIS | VIYSDGRRTWYIDSVK | GRTAGTFDS showed 14 nM (6 of 6 replicates; controls 0 of 18). The variant GFSLNSYGIS | VIYSDGRRTFYMDSVK | GRTAGTFDS gave nd (0 of 6 replicates; controls 0 of 18). For GFTLNEYGIS | VIYSDGRRTFYGDSVK | GEAAGTFDF, the assay gave 4.5 nM (1 of 6 replicates; controls 0 of 18). With GFTLNSYGIS | VIYSDGRRTFYDPSVK | GRAAGTFFS the result was 1.1 nM (6 of 6 replicates; controls 1 of 18). For GFDLNSYGIS | VIYSDGRRTFYTDSVK | GKAAGTFDS, the assay gave 830 pM (6 of 6 replicates; controls 0 of 18).

For GFTLNSYGIS | VIYSDGRRTFYIDSVK | GHAAGTFDT, the assay gave 20 nM (5 of 6 replicates; controls 0 of 18). With GFTLNSYGIS | VIYSDGRRTFYGDSVK | GPIAGTFDS the result was 38 nM (6 of 6 replicates; controls 2 of 18). The variant GGDLNSYGIS | VIYSDGRRTFYQDSVK | GRAAGWFNS showed 110 nM (2 of 6 replicates; controls 0 of 18). The variant GFQLNSYGIS | VIYSDGRRTFYSDRVK | GEAAGTFDK gave 6.7 nM (2 of 6 replicates; controls 0 of 18). For GFTLNSYGIS | VIYSDGRRTFYGDSVK | GEAADTFPS, the assay gave nd (0 of 6 replicates; controls 0 of 18). The variant GFDLNSYGIS | VIYSDGRRTFYGDSVK | GKTAGTFDT showed 640 pM (6 of 6 replicates; controls 0 of 18).

For GFGLNSYGIS | VIYSDGRRTAYGDSVK | GRQAGTFDS, the assay gave 7.6 nM (6 of 6 replicates; controls 0 of 18). For GFDLNSYGIS | VIYSDGRRTFYGDSVK | GREAGVFNS, the assay gave 1.2 µM (1 of 6 replicates; controls 0 of 18). With GFTLNEYGIS | VIYSDSRRTFYGDSVK | SRAAVTFDQ the result was nd (0 of 6 replicates; controls 0 of 18). The variant GFTLNEYGIS | VIYSDGRRTFYGDSVK | GRAALTFWL showed nd (0 of 6 replicates; controls 0 of 18). With GFTLNSYGIS | VIYSDGRRTFYADSVK | GNAAGTFDT the result was 3.0 nM (6 of 6 replicates; controls 0 of 18). The variant GFSLNMYGIS | VIYSDGRRTFYGDSVK | GQTAGTFDS showed 6.0 nM (6 of 6 replicates; controls 0 of 18).

For GFQLNEYGIS | VIYSDGRRTFYSDSVK | GRTAGTFDS, the assay gave 590 pM (6 of 6 replicates; controls 0 of 18). For GFTLNSYGIS | VIYSDGRRTFYSDQVK | GKAAGTFDT, the assay gave 6.2 nM (6 of 6 replicates; controls 0 of 18). The variant GFDLNSYGIS | VIYSDGRRTFYGDSVK | GAEAGTFDS showed 2.0 nM (6 of 6 replicates; controls 0 of 18). For GFTLNSYGIS | VIYSDGRRTFYGDDVK | GSAAGTFDS, the assay gave 45 nM (6 of 6 replicates; controls 0 of 18). For GEHLNSYGIS | VIYSDGRRTFYGDSVK | GMEAGTFDT, the assay gave 230 nM (5 of 6 replicates; controls 0 of 18). With GFTLNEYGIS | VIYSDGRRTFYGDSVK | GRSAVTFDQ the result was nd (0 of 6 replicates; controls 1 of 18).

With GFTLNSYGWL | VIYSTGRRTFYSDSVK | GRAGGTFDS the result was nd (0 of 6 replicates; controls 0 of 18). The variant GFRLNEYGIS | VIYSDGRRTFYGDSVK | GRAAGTFDM showed 13 nM (5 of 6 replicates; controls 0 of 18). For GFTLESYGIS | VIYSDGRRQFYTDSVK | GQAAGTFDS, the assay gave 28 nM (5 of 6 replicates; controls 0 of 18). The variant GFNLNSYGIS | VIYSDGRRTFYVDSVK | GQLAGTFDS showed 16 nM (6 of 6 replicates; controls 0 of 18). With GFSLNEYGIS | VIYSDGRRTFYTDRVK | GEAAGTFDS the result was 4.7 nM (6 of 6 replicates; controls 0 of 18). With GFQLNSYGIS | VIYSDGRRTFYGDQVK | GRTAGTFDQ the result was 2.6 nM (6 of 6 replicates; controls 0 of 18).

With GFDLNSYGIS | VIYSDGRRTFYIDSVK | GRAAGTFNS the result was 14 nM (6 of 6 replicates; controls 0 of 18). The variant GFTLNSYGIS | VIYSDGRRTSYGDSVK | GRAAGTFDQ gave 1.4 µM (2 of 6 replicates; controls 0 of 18). For GFVLNEYGIS | VIYSDGRRTFYGDSVK | GQTAGTFDS, the assay gave 3.0 nM (6 of 6 replicates; controls 1 of 18). With GFTLNSYHIE | VIYSDGRRTFYDDSVK | GQLAGTFDS the result was nd (0 of 6 replicates; controls 0 of 18). For WFTLESYGIS | VIYADGRRTFYGDSVK | GRAAGTFDS, the assay gave nd (0 of 6 replicates; controls 0 of 18). The variant GVTLNSYGIS | VIYSDGRRTFYADSVK | GRGAGTFDS showed 6.6 nM (6 of 6 replicates; controls 0 of 18).

The variant GFTLDSYGIS | VIYADGRRTFYGDRVK | GRAAGTFDL showed 1.6 nM (6 of 6 replicates; controls 0 of 18). The variant KFTLNSYGIS | VIYSDGRRTFYGDNFK | GRAAGRFDS showed 470 nM (1 of 6 replicates; controls 0 of 18).

A selection of 5 entries from above:

CDR-H1,CDR-H2,CDR-H3,Kd,replicates with signal,signal with controls
GFTLNQYGIS,VIYSDGRRTFYSDSVK,GKAAGTFDS,1.9 nM,6/6,0/18
GFQLNSYGIS,VIYSDGRRTFYSDRVK,GEAAGTFDK,6.7 nM,2/6,0/18
GFTLNSYGIS,VIYSDGRRTFYHDSVK,GQVAGTFDS,8.0 nM,6/6,0/18
GFQLNEYGIS,VIYSDGRRTFYSDSVK,GRTAGTFDS,590 pM,6/6,0/18
GFSLNEYGIS,VIYSDGRRTFYTDRVK,GEAAGTFDS,4.7 nM,6/6,0/18

Values reported by Li et al. 2023, doi:10.1038/s41467-023-39022-2 (FLAb copy).